{"source": "patent US20120220480A1", "about": "“METHOD FOR THE DETECTION OF RENAL DAMAGE” (UNIVERSIDAD DE SALAMANCA, priority 2009, published 2012)", "key": {"[1]": {"system": "Female Wistar rats", "assay": "Gentamicin-induced kidney damage in rats: survival, body weight, serum and urine biochemical measurements", "experimental": "(§1) Female Wistar rats were used weighing 200-250 g. The animals were allocated under controlled environmental conditions in individual metabolic cages, for individual urine sample collection every 24 hours. Normal feed and water were administered ad libitum. […] On day 7, the animals were anaesthetised with sodium pentobarbital and the kidneys were perfused by the aorta with saline (0.9% NaCl) to eliminate the blood. The kidneys were immediately dissected. One was frozen in liquid nitrogen and subsequently kept at −80° C. for Western blot studies, and the other was soaked in p-formaldehyde at 3.7% for histological studies. Blood samples were also obtained in heparinised capillaries at different time points by a small incision in the tail tip. Blood was centrifuged and serum was kept at −80° C. until use. Urine was cleared by centrifugation at 10,000 g and 4° C. during 10 minutes, and kept at −80° C. until use.\nSerum and urinary creatinine and urea nitrogen concentration were measured using commercial reactive strips (Roche Diagnostics) and the Reflotron® automated analyser (Roche Diagnostics). […] Urine protein concentration was measured by the Bradford method (Bradford, 1976. Anal Biochem, 72: 248-254). Urine NAG content was indirectly determined by the level of NAG activity. NAG enzymatic activity was determined by a colorimetric method based on the conversion of 3-cresolsulfonphthaleinyl-N-acetyl-D-glucosaminide into the purple 3-cresol-cresolsulfonphthaleinyl, measured at 580 nm using a plate photometer (Thermo). To measure NAG activity a commercial kit was used (Roche Diagnostics) following the manufacturer's instructions."}, "[2]": {"system": "reg IIIb", "assay": "Western blot analysis of reg IIIb in urine and serum of treated rats", "conditions": "albumin-depleted serum, rats treated during 6 days, to the detection limit", "experimental": "Female Wistar rats were used weighing 200-250 g. The animals were allocated under controlled environmental conditions in individual metabolic cages, for individual urine sample collection every 24 hours. Normal feed and water were administered ad libitum. […] On day 7, the animals were anaesthetised with sodium pentobarbital and the kidneys were perfused by the aorta with saline (0.9% NaCl) to eliminate the blood. The kidneys were immediately dissected. One was frozen in liquid nitrogen and subsequently kept at −80° C. for Western blot studies, and the other was soaked in p-formaldehyde at 3.7% for histological studies. Blood samples were also obtained in heparinised capillaries at different time points by a small incision in the tail tip. Blood was centrifuged and serum was kept at −80° C. until use. Urine was cleared by centrifugation at 10,000 g and 4° C. during 10 minutes, and kept at −80° C. until use. […]"}, "[3]": {"system": "gelsolin", "assay": "Western blot analysis of gelsolin in urine and serum of treated rats", "experimental": "as §1\nWestern blots were run with (i) urine samples (21 μl per sample), (ii) tissue extracts (100 μg total protein per sample) prepared by homogenizing the kidneys with a tissue mixer (Ultra-Turrax T8, IKA®-Werwe) at 4° C. in homogenization buffer (140 mM NaCl, 20 mM Tris-HCl pH=7.5, […] ethylenediaminetetraacetic acid—EDTA-, 10% glycerol, 1% Igepal CA-630, 1 μg/mL aprotinin, 1 μg/mL leupeptin, 1 μg/mL pepstatin A, 1 mM phenylmethylsulphonyl fluoride—PMSF—), or (iii) albumin-free blood serum. Albumin was removed from serum with a column-based, commercial kit based on the immunological retention of rat albumin (Qproteome Murine Albumin Depletion Kit, Quiagen). Samples were separated by electrophoresis in 10-15% acrylamide gels (Mini Protean II system, BioRad). Immediately, proteins were electrically transferred to an Immobilon-P membrane (Millipore). Membranes were probed with antibodies against KIM-1 (R&D Systems), bone morphogenetic protein 7 (BMP-7, Santa Cruz Biotechnology), NGAL (MBL), PAI-1 (BD Biosciences), reg IIIb (R&D Systems), and gelsolin (Santa Cruz Biotechnology)."}, "[4]": {"conditions": "rats, gentamicin i.p. 150 mg/kg, after 7 days treatment"}}, "note": "Marks after values point to notes of the source that are not given here.", "data": [{"substance": "gentamicin", "values": [{"measurement": "Renal failure (serum creatinine concentration and BUN)", "setting": "[1]; 6 rats per group, nephrotoxic regime (FIG. 6-B)", "value": "developed an overt renal failure"}, {"measurement": "Excretion of proteins relative to the control group", "setting": "[1]; rats, gentamicin group vs control group (Table 2)", "value": "more than 5 times"}, {"measurement": "BUN (blood urea nitrogen)", "setting": "[1]; [4]", "value": "435.8 ± 47.9^a mg/dL"}, {"measurement": "Creatinine (plasma creatinine concentration)", "setting": "[1]; [4]", "value": "3.3 ± 0.4^a mg/dL"}, {"measurement": "NAG excretion", "setting": "[1]; [4]", "value": "744 ± 212^a UA/day"}, {"measurement": "Time at which significant renal damage occurs (serum creatinine, NAG excretion, proteinuria, KIM-1, NGAL, PAI-1)", "setting": "[1]; rats, time course of treatment (FIG. 7)", "value": 4, "unit": "days"}, {"measurement": "Serum level of reg IIIb", "setting": "[2]", "value": "absent"}, {"measurement": "Serum level of gelsolin", "setting": "[3]; albumin-depleted serum, rats treated during 6 days (FIG. 8-B)", "value": "slightly increases"}, {"measurement": "Day on which urinary gelsolin (~43 kDa fragment) appears", "setting": "[3]; rats, time course of treatment, Western blot (FIG. 7)", "value": 1, "unit": "days"}, {"measurement": "~43 kDa gelsolin fragment (t-gelsolin) band in urine", "setting": "[3]; urine of rats with overt renal failure, Western blot (FIG. 6)", "value": "induces the appearance"}]}]}
